## Yeast mating assay 2: variants of the scFv Ab-95

Data: MIT Lincoln Laboratory AlphaSeq set, Engelhart et al. 2022, doi:10.1038/s41597-022-01779-4, as distributed in FLAb.

Target peptide (SARS-CoV-2 spike, HR2 region): PDVDLGDISGINAS

The variants keep the heavy chain, the linker and the frameworks of Ab-95 (scFv order VH, a 15-residue (Gly4Ser)3 linker, VL).
VH: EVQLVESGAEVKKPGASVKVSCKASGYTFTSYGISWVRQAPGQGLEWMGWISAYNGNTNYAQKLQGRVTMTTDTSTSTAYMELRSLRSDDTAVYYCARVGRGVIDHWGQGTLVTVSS
VL: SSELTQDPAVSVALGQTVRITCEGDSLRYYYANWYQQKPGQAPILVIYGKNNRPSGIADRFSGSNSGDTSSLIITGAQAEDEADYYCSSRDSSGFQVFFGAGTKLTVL

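The parent was found by panning a naive human phage display library on the peptide. In library AAYL52, one, two or three CDR residues were substituted; doubles and triples were drawn at random. AlphaSeq pools MATa yeast showing the antibodies with MATalpha yeast showing the peptide. Mating (16 h, 30 °C) was followed by selection of diploids and sequencing of their barcodes. A regression on co-assayed BCL2-family reference pairs converts the normalised counts of each replicate to an apparent Kd. There are three technical replicates.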

Each variant is given by its three light chain CDRs, as the data file delimits them; those of the parent are EGDSLRYYYAN, GKNNRPS, SSRDSSGFQVF. This list gathers variants with a substitution at Y30 (VL, numbered from residue 1). Each Kd is an estimate from the mating assay, the geometric mean of the replicates in which the pair was seen; lower is stronger. A pair that was not seen in any replicate is written "nd"; this usually means weak binding, but a binder can also be missed. For reference, the parent read 200 nM as the reference entry and 180 nM as a member of this library.

- EGDSLRYFYAN | GKNNRPS | SWRLSSGFQVF: 1.5 µM (3 of 3 replicates; controls 4 of 9)
- EGDSLRYDYAN | GKNNRYS | SSRDSSGFSVF: 320 nM (3 of 3 replicates; controls 2 of 9)
- EGDSLRFPYAN | GKNNRPS | SSRDSSGFQVF: 130 nM (3 of 3 replicates; controls 1 of 9)
- EGDSLRYFYAN | TKNNRPS | SSRDSSIFQVF: 42 µM (2 of 3 replicates; controls 6 of 9)
- EGDSLRYSYAN | GKNNRPS | SSRDSRGFQVF: 17 nM (3 of 3 replicates; controls 3 of 9)
- EGDSLRYTYAN | GKNNRPS | PSRDSYGFQVF: 23 nM (3 of 3 replicates; controls 5 of 9)
- EGDSLRYAYAK | GKNNRPS | SSRDSSGFLVF: 7.2 µM (2 of 3 replicates; controls 3 of 9)
- EGDSLRYIYAN | GKNNRPS | SSRDLSGFQLF: 1.4 µM (3 of 3 replicates; controls 2 of 9)
- EGDSLRYEYAN | GKNVYPS | SSRDSSGFQVF: 4.2 µM (3 of 3 replicates; controls 4 of 9)
- EGDSLRYWYAN | GKNNTPS | SSRDRSGFQVF: 500 nM (3 of 3 replicates; controls 3 of 9)
- EGDSLRYTYLN | GKNNRPS | SSRDSSFFQVF: 860 nM (3 of 3 replicates; controls 2 of 9)
- EGDSPRYAYAN | WKNNRPS | SSRDSSGFQVF: nd (0 of 3 replicates; controls 1 of 9)
- EGDSLRYMYAN | GKNNYPS | SSRDSSGFQNF: 26 µM (3 of 3 replicates; controls 3 of 9)
- EGDSLFCMYAN | GKNNRPS | SSRDSSGFQVF: 350 nM (3 of 3 replicates; controls 1 of 9)
- EGDSLRYVYAN | GKVNRPS | SSRDSSKFQVF: nd (0 of 3 replicates; controls 0 of 9)
- EGDSLRYMYSA | GKNNRPS | SSRDSSGFQVF: 1.3 µM (3 of 3 replicates; controls 5 of 9)
- EGDSLRYNYAN | GRNNRPS | SSIDSSGFQVF: 23 nM (3 of 3 replicates; controls 3 of 9)
- EGDSLRYIYAN | GKNNRPS | SSRDTSGFQVI: 1.5 µM (3 of 3 replicates; controls 5 of 9)
- EGDSLRYNYAG | GKYNRPS | SSRDSSGFQVF: 16 µM (3 of 3 replicates; controls 2 of 9)
- EGDSLYYEYAN | GKNNRPS | SSRDSFGFQVF: 1.1 µM (1 of 3 replicates; controls 0 of 9)
- ELDSLRYRYAN | VKNNRPS | SSRDSSGFQVF: 46 µM (2 of 3 replicates; controls 1 of 9)
- EGDSWRYKYAP | GKNNRPS | SSRDSSGFQVF: 6.5 µM (1 of 3 replicates; controls 3 of 9)
- EGDSLRYVYWN | NKNNRPS | SSRDSSGFQVF: 1.5 µM (1 of 3 replicates; controls 1 of 9)
- EGDSLRYFYAN | GKNNRPS | SSRDSSGFHVF: 1.5 µM (3 of 3 replicates; controls 4 of 9)
- EGDSLRYAYAN | GKNNRPP | SSRDSIGFQVF: 190 nM (3 of 3 replicates; controls 2 of 9)
- ESDSLRYAYAN | GKNNRPS | SSRDSHGFQVF: 400 nM (3 of 3 replicates; controls 4 of 9)
- EGDYLRYGYAN | GKNNRPS | SSRDSSGFQVF: 30 nM (3 of 3 replicates; controls 4 of 9)
- EGDSLVYCYAN | GKNNRPR | SSRDSSGFQVF: nd (0 of 3 replicates; controls 4 of 9)
- EGDSLRYSYAN | GKNNRPS | SARDMSGFQVF: 3.6 nM (3 of 3 replicates; controls 3 of 9)
- EVDSLRYLYAN | GKNNRPS | SSRDSSGFQVF: 63 µM (2 of 3 replicates; controls 4 of 9)
- EGDSLRYKYAN | GKNNRPQ | SSRDSSGFQVF: 8.0 nM (3 of 3 replicates; controls 6 of 9)
- EGDSLRYGYAN | GKNNRPS | SNRDSSGFNVF: 8.2 nM (3 of 3 replicates; controls 4 of 9)
- EGQSLRYMYAN | GKNNRPS | SSRFSSGFQVF: 130 nM (3 of 3 replicates; controls 2 of 9)
- EGDSLRYWYAN | GKANRPS | SSRLSSGFQVF: 17 µM (2 of 3 replicates; controls 5 of 9)
- EGDSERYFYAN | GKNNRPS | SLRDSSGFQVF: 13 µM (1 of 3 replicates; controls 5 of 9)
- EGDSLRSHYEN | GKNNRPS | SSRDSSGFQVF: 7.8 µM (3 of 3 replicates; controls 2 of 9)
- EGDSLRYNYAN | GKNNRKS | SNRDSSGFQVF: 17 µM (1 of 3 replicates; controls 1 of 9)
- EGDCPRYGYAN | GKNNRPS | SSRDSSGFQVF: 4.9 µM (3 of 3 replicates; controls 2 of 9)
- EGDSLRYGYAN | KKNNRPS | SSRPSSGFQVF: 470 nM (3 of 3 replicates; controls 0 of 9)
- EGDSLRYGYAN | GKNNRPS | LSRDSSGFQVF: 46 nM (3 of 3 replicates; controls 2 of 9)
- KGDSLRYLYAN | GKNNRPS | SDRDSSGFQVF: 780 nM (3 of 3 replicates; controls 4 of 9)
- EGDSLRYNYAN | GKNNRPH | SSRDSSGDQVF: 13 nM (3 of 3 replicates; controls 5 of 9)
- EGDSLRYAYAN | GKNNRPS | SSRDSKKFQVF: 18 nM (3 of 3 replicates; controls 6 of 9)
- EKDSLRYWYAN | GKNNTPS | SSRDSSGFQVF: 92 nM (3 of 3 replicates; controls 1 of 9)
- EGDSLRPHYAN | GKRNRPS | SSRDSSGFQVF: 1.6 µM (3 of 3 replicates; controls 6 of 9)
- EGDSLRYIYAN | GYNNRPS | SSRDSSGFQVF: 7.7 µM (3 of 3 replicates; controls 3 of 9)
- EKDSLRYVYAN | GKNNRPS | SSRDSSGFQVF: 5.1 µM (2 of 3 replicates; controls 2 of 9)

Picked from the list: the 6 lowest averages where every replicate gave a value.

CDR-L1,CDR-L2,CDR-L3,apparent Kd,replicates with signal,signal with controls
EGDSLRYSYAN,GKNNRPS,SARDMSGFQVF,3.6 nM,3/3,3/9
EGDSLRYKYAN,GKNNRPQ,SSRDSSGFQVF,8.0 nM,3/3,6/9
EGDSLRYGYAN,GKNNRPS,SNRDSSGFNVF,8.2 nM,3/3,4/9
EGDSLRYNYAN,GKNNRPH,SSRDSSGDQVF,13 nM,3/3,5/9
EGDSLRYSYAN,GKNNRPS,SSRDSRGFQVF,17 nM,3/3,3/9
EGDSLRYAYAN,GKNNRPS,SSRDSKKFQVF,18 nM,3/3,6/9

As a blank, each scFv also met three strains without target: over library AAYL52, 28% of these pairings were detected, typically at 8.2 µM and seldom below 800 nM. The control count says in how many pairings with the empty strains this scFv gave a signal.